Values quoted from earlier work, collected in patent US8946382B2, “Apelin peptides and methods of use” (The United States of America, as represented by the …, priority 2009, dated 2015).
Where two headings read alike, the source gives them in different places.

What was measured:
[1] = target: T1, apelin G protein receptor (known as APJ) (Homo sapiens, UniProt P35414); conditions: Tatemoto et al. 1998; cited from earlier work
T1 sequence (P35414 1-380): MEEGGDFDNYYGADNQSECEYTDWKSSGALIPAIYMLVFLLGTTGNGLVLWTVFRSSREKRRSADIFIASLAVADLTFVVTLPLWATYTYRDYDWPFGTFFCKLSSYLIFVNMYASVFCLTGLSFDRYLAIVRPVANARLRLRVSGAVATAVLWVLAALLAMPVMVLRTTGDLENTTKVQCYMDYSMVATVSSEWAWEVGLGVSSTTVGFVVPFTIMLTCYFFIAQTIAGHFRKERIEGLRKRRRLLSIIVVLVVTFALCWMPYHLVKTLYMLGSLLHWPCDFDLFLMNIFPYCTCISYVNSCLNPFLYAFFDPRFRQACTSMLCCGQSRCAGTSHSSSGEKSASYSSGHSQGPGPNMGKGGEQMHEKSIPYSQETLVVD

[2] = target: T2, APJ receptor (Homo sapiens, UniProt P35414); conditions: cited from earlier work
T2 sequence (P35414 1-380): T1 sequence (P35414 1-380)

apelin-36: 36 amino acid peptide, residues 42-77 of the apelin preproprotein (LVQPRGSRNGPGPWQGGRRKFRRQRPRLSHKGPMPF; homo sapiens)
potency of peptide-induced acidification rates [1]: least potent | binding to the APJ receptor [2]: bind the APJ apelin receptor | binding to the APJ receptor ([2]; listed as Apelin-36 (42-77)): can bind the APJ receptor
